According to patent US4022791A (priority 1975, dated 1977):

Test system: Rats
Details: 32 mg./kg. IP

COc1ccc(Cl)c2c1CCC(CN1CCC3(CC1)C(=O)N(C)CN3c1ccccc1)=C2
Rat Jump .5 hr (current at which the animal first jumps) (0.5 hour after administration): 1.2 milliamperes | Rat Jump 2 hr (current at which the animal first jumps) (2.0 hours after administration): 1.2 milliamperes
